Target: hCOX-1 (Homo sapiens, UniProt P23219)
Experiment: biochemical

Chains of the proteins cited; added tags and fusions are not shown. Residues count along the entry.
UniProt P23219, 24-599: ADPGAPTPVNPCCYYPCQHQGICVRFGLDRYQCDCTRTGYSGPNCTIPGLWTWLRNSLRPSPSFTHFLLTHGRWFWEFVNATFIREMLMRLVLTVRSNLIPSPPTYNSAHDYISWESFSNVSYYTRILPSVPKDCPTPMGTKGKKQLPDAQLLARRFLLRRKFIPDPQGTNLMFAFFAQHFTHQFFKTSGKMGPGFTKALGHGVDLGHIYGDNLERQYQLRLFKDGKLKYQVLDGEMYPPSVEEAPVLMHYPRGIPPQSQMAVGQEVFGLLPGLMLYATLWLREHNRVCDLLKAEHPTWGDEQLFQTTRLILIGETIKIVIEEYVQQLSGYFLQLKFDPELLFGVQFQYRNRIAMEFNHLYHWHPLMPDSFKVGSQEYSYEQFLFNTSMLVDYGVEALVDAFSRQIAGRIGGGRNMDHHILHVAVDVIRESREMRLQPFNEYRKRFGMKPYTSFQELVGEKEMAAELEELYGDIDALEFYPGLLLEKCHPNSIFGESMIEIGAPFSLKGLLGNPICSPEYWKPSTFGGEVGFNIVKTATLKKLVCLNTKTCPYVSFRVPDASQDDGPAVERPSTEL

SMILES: COc1ccc(-c2noc(CC(=O)O)c2-c2ccc(OC)cc2)cc1 [mofezolac]
- IC50: 23 µM

Source: publication PMC7900114, “Three-dimensional structure of human cyclooxygenase (hCOX)-1” (Scientific Reports, 2021)
